Values of other authors, collected in patent publication US9901549B2, “Method for treating vaginal dryness by administering transient receptor potential cation channel subfamily M member 8 (TRPM8) receptor agonists” (UNIVERSIDAD MIGUEL HERNÁNDEZ DE ELCHE, priority 2010, dated 2018).

Chains of the proteins cited; added tags and fusions are not shown.
UniProt Q7Z2W7, whole entry: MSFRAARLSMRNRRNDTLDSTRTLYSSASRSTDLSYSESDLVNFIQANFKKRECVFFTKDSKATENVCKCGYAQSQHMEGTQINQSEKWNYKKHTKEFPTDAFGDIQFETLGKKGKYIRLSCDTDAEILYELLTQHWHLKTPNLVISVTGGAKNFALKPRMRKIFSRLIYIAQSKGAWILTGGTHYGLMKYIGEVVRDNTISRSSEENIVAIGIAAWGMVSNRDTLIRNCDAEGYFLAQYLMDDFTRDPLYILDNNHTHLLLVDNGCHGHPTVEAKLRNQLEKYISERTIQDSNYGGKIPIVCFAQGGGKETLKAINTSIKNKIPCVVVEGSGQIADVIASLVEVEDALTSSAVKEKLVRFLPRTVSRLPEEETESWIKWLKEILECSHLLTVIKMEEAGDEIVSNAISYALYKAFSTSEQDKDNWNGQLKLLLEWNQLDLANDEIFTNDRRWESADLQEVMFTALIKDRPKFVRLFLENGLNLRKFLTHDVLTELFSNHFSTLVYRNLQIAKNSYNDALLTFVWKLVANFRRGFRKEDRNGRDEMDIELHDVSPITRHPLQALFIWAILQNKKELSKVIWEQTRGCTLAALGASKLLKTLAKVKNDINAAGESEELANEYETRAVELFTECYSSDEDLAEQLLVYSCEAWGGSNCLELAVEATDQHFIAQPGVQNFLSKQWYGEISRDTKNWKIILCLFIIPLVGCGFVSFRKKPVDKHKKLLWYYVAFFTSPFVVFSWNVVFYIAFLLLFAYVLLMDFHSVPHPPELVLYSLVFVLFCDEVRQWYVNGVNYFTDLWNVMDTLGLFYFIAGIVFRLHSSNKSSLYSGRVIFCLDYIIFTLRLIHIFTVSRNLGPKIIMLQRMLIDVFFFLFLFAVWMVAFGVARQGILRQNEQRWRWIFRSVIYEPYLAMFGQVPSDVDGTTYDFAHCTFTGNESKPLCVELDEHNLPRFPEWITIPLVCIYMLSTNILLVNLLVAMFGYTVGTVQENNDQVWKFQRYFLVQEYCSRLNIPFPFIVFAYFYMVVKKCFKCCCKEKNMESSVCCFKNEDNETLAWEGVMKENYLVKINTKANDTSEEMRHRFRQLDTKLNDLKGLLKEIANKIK

Biological target: native TRPM8 channel (Homo sapiens, UniProt Q7Z2W7)
Details: read-out: IC50 menthol; SF; 20 μM menthol at 22° C.; Ortar et al. 2010; cited from earlier work

Structure (SMILES): CC(C)[C@@H]1CC[C@@H](C)C[C@H]1NC(=O)Oc1ccc(C(C)(C)C)cc1
- IC50: 100 nM
